Values quoted from earlier work as cited in US12338283B2, “Methods for targeting the immune checkpoint PD1 pathway for treating pulmonary fibrosis” (CEDARS-SINAI MEDICAL CENTER, priority 2017, dated 2025).

Target: B7-1
Conditions: read-out: affinity of PD-L1 and B7-1 interaction; surface plasmon resonance; cited from earlier work

PD-L1: programmed cell death 1 ligand 1 protein
Kd: 1700 nM
